{"source": "patent US20110245496A1", "about": "“Quinazoline Salt Compounds” (priority 2007, published 2011)", "experiment": "Salt solubility measurement in water", "conditions": "stirred at ambient temperature 18-20 hours, filtered, hplc assay"}
{"smiles": "CS(=O)(=O)CCNCc1ccc(-c2ccc3ncnc(Nc4ccc(OCc5cccc(F)c5)c(Cl)c4)c3c2)o1.CS(=O)(=O)CCNCc1ccc(-c2ccc3ncnc(Nc4ccc(OCc5cccc(F)c5)c(Cl)c4)c3c2)o1.O=S(=O)(O)CCS(=O)(=O)O", "values": [{"measurement": "Solubility as free base", "result": 7, "unit": "µg/mL"}, {"measurement": "Solubility as salt", "result": 9, "unit": "µg/mL"}]}
